These are literature values, as cited in patent US9376395B2 (priority 2011, dated 2016).

For this series the following is noted: cited from earlier work.

Each structure is given as a SMILES string.

As a reminder, the pKa is the negative logarithm of the acid dissociation constant. Take `NC(CO)(CO)CO` [Tris]: the pKa is reported as 8.30.
